# Measured affinities in a library of Ab-95 light chain variants

From the AlphaSeq antibody data of Engelhart et al. 2022 (doi:10.1038/s41597-022-01779-4), copy in the FLAb collection.

All variants were tested on one target, the spike HR2 peptide PDVDLGDISGINAS (SARS-CoV-2).

Parent: Ab-95, a human scFv built as VH, a (GGGGS)3 linker, VL. Only the CDRs of the light chain vary.
VH: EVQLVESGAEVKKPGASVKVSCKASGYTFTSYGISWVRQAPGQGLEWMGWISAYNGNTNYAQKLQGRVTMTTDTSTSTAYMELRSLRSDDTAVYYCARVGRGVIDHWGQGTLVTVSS
VL: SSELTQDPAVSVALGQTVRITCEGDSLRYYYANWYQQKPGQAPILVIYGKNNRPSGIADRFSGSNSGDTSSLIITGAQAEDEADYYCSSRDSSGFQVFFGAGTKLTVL

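The library (AAYL52) carries one to three amino acid substitutions per variant, with no insertions or deletions. The assay is AlphaSeq: two haploid yeast populations carry antibody and antigen on their surface. The frequency of each diploid, read from paired DNA barcodes, reflects how well the two displayed proteins bind. A regression on co-assayed BCL2-family reference pairs converts the normalised counts of each replicate to an apparent Kd. Mating was done three times.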

Positions count from residue 1 of the parent VL; N51Q puts Q in place of N. Every variant below is changed at N51 of the VL (sequential numbering). Values are log10 of the apparent Kd in nM; lower means stronger binding. A mean of the replicates is given; it leaves out those without a signal. "nd" marks a missing value. The strain was present, yet no cells mated with the target were sequenced in any replicate, which points to weak or no binding.

The variant N51Q/G94L/Q96H gave 3.92 (3 of 3 replicates).
The variant N51T/S89E/F95P gave 3.33 (3 of 3 replicates).
The variant R28F/N51I gave 3.88 (2 of 3 replicates).
The variant N51W/D91P/S92W gave 4.85 (2 of 3 replicates).
The variant K50D/N51G/F98I gave 1.82 (3 of 3 replicates).
The variant N51S/F95P/Q96G gave 3.15 (3 of 3 replicates).
The variant L27Q/N51F/G94C gave 4.96 (1 of 3 replicates).
The variant N33T/N51L gave 4.20 (1 of 3 replicates).
The variant Y30V/N51C/S93P gave 4.42 (3 of 3 replicates).
The variant K50Y/N51G/P54M gave 3.03 (3 of 3 replicates).
The variant L27T/N51E/V97C gave 3.13 (1 of 3 replicates).
The variant G24F/Y29L/N51F gave 3.42 (1 of 3 replicates).
The variant N51I gave nd (0 of 3 replicates).
The variant G24E/G49Y/N51P gave 3.67 (1 of 3 replicates).
The variant Y30R/N51P/R53Y gave 3.29 (3 of 3 replicates).
The variant N51R/N52L gave 3.11 (2 of 3 replicates).
The variant N51P/S55Q/F98E gave 4.33 (2 of 3 replicates).
The variant G24K/N51Y/V97L gave 4.19 (1 of 3 replicates).
The variant A32M/N51K/S89L gave nd (0 of 3 replicates).
The variant Y29G/N51W/V97T gave 4.08 (1 of 3 replicates).
The variant E23S/N51E/F95I gave 3.54 (2 of 3 replicates).
The variant N51H/S88T/F95E gave 4.28 (2 of 3 replicates).
The variant K50Y/N51G/V97A gave 3.96 (3 of 3 replicates).
The variant N51E/P54G/F95S gave 2.53 (3 of 3 replicates).
The variant K50S/N51V/S93D gave 3.01 (3 of 3 replicates).
The variant S26L/R28C/N51M gave 3.44 (1 of 3 replicates).
The variant N51D/S55P gave 2.77 (3 of 3 replicates).
The variant N51M/S93E gave 3.67 (2 of 3 replicates).
The variant N33M/K50M/N51G gave nd (0 of 3 replicates).
The variant L27G/N51M/R90G gave 4.66 (2 of 3 replicates).
The variant A32S/N51M/Q96I gave 3.33 (1 of 3 replicates).
The variant G24V/N51A/F98M gave 4.13 (2 of 3 replicates).
The variant E23S/K50L/N51E gave 3.26 (3 of 3 replicates).
The variant S26D/R28H/N51T gave 3.24 (3 of 3 replicates).
The variant N51S/N52W/V97R gave 4.41 (3 of 3 replicates).
The variant Y31T/A32E/N51E gave 4.16 (1 of 3 replicates).
The variant N51Y/F98G gave 4.16 (3 of 3 replicates).
The variant Y31V/N33T/N51E gave 3.41 (1 of 3 replicates).
The variant E23I/G49D/N51Y gave 4.81 (2 of 3 replicates).
The variant R28K/N51G/R53W gave nd (0 of 3 replicates).
The variant R28Q/A32T/N51W gave 3.96 (2 of 3 replicates).
The variant Y31A/N51G/S88M gave 0.69 (3 of 3 replicates).
The variant N51E/D91I/Q96E gave 2.82 (3 of 3 replicates).
The variant S26Q/Y30N/N51R gave nd (0 of 3 replicates).
The variant N51S/S93L gave 3.24 (3 of 3 replicates).
The variant G49I/N51P/R90Y gave 3.83 (1 of 3 replicates).
The variant R28S/N51H/S88V gave 4.02 (2 of 3 replicates).
The variant K50I/N51R/S89H gave 4.05 (2 of 3 replicates).
The variant Y30M/N51E/G94T gave 3.70 (2 of 3 replicates).

Extract of 4 entries:

{"changes": "N51Y/F98G", "mean, log10 nM": "4.16", "seen in": "3/3"}
{"changes": "K50S/N51V/S93D", "mean, log10 nM": "3.01", "seen in": "3/3"}
{"changes": "N51E/D91I/Q96E", "mean, log10 nM": "2.82", "seen in": "3/3"}
{"changes": "N51R/N52L", "mean, log10 nM": "3.11", "seen in": "2/3"}

Nonspecific signal, from three strains lacking the peptide, appeared in 28% of pairings of library AAYL52, centred on 3.91 (5% of these signals below 2.90); values are not corrected for it.